By UniProt entry, the sequences of proteins in these tests, tags left out. Residues count along the entry.
UniProt Q14416, 19-872 limits assumed: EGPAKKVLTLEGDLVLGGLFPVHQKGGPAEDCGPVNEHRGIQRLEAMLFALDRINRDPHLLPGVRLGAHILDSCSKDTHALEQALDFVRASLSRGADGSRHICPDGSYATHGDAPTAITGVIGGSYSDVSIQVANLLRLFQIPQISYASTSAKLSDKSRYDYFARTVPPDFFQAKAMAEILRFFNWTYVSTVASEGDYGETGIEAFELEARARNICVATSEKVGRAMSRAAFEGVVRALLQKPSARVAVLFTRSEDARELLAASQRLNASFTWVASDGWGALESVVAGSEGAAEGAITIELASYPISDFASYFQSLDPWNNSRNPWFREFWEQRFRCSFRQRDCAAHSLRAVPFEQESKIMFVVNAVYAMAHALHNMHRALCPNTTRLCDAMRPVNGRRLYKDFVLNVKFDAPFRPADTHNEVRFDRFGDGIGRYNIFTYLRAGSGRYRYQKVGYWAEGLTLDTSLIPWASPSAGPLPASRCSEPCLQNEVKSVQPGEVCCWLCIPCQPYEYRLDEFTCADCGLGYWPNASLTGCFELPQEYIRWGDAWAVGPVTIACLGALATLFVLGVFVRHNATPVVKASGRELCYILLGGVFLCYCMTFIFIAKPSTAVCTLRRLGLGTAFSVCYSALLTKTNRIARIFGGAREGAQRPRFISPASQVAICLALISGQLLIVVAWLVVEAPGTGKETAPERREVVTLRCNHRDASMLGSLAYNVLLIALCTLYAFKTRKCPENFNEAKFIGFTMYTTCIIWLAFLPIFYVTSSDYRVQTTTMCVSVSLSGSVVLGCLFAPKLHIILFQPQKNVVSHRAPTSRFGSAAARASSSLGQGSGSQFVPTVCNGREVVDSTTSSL

According to patent publication US20260098030A1, “NEGATIVE ALLOSTERIC MODULATORS OF METABOTROPIC GLUTAMATE RECEPTOR 2” (Vanderbilt University, priority 2022, published 2026):

Target: human mGlu2 (Homo sapiens, UniProt Q14416)
Assay: mGlu GIRK cell-based thallium flux assay, human mGlu2
Conditions: read-out: Human mGlu2 GIRK IC50, HEK-293 cells co-expressing human mGlu2 and GIRK, EC80 glutamate

Compound | IC50 [µM]
O=C1NCc2cc(CN3CCSCC3)c(-c3ccc(F)cc3F)cc21 | > 10
O=C1NCc2cc(CN3CCOCC3)c(-c3ccc(F)cc3F)cc21 | > 10
